Assay results reported in US20180050114A1, “HER2 APTAMER-ANTICANCER DRUG COMPLEX FOR CANCER CELL CHEMOTHERAPY” (priority 2016, published 2018).

Test system: BT474-Tra and BT474 cell lines
Assay: MTS cell viability of Trastuzumab-resistant cell line
Type: cell-based
Conditions: 0 to 200 μg/ml, 48 hr; BT474-Tra versus BT474 (FIG. 8)
Description: (1) HER2-positive breast cancer BT474 cells were subcultured at intervals of 3 days using a culture medium containing 4 μg/ml of Trastuzumab, after which resistant clones, which were continuously exposed to Trastuzumab for a total of 8 months, were selected, thus establishing a Trastuzumab-resistant cell line (BT474-Tra).
(2) BT474 and BT474-Tra cell lines were treated with Trastuzumab at a concentration of 0 to 200 μg/ml for 48 hr, after which the cell viability was measured. For the BT474 and BT474-Tra cell lines, the expression of p185HER2, p95HER2, p-HER2, p-p95HER2, HERS, p-HER3, total-AKT, p-AKT, and PARP was analyzed via Western blot. Cell viability was measured using a CellTiter 96* Aqueous One Solution Cell Proliferation Assay [MTS, 3-(4,5-dimethylthiazol-2-yl)-5-(3-carboxymethoxyphenyl)-2-(4-sulfophenyl)-2H-tetrazolium], and the amount of produced formazan was determined by measuring absorbance at 490 nm using a Spectramax Plus 384 microplate analyzer. In the Western blot, the above cells were lysed in a lysis buffer (30 mM NaCl, 0.5% Triton X-100, 50 mM Tris-HCl; pH 7.4) containing phosphatase and a protease inhibitor, and the supernatant was collected and then the protein was […] using a Bradford protein assay kit. […] Signal intensity was measured using an Enhanced Chemiluminescence Kit and an X-ray film, and quantified with AlphaEaseFC software.

Substance: Trastuzumab: existing drug used to establish and test the Trastuzumab-resistant cell line BT474-Tra
- sensitivity to Trastuzumab (cell viability, MTS): lower sensitivity to Trastuzumab than the BT474 cell line
